In this assay the target is Sodium-dependent serotonin transporter (Rattus norvegicus, UniProt P31652). The assay is described as follows: Binding affinity at rat SERT.

Chains of the proteins cited; added tags and fusions are not shown.
UniProt P31652, whole entry: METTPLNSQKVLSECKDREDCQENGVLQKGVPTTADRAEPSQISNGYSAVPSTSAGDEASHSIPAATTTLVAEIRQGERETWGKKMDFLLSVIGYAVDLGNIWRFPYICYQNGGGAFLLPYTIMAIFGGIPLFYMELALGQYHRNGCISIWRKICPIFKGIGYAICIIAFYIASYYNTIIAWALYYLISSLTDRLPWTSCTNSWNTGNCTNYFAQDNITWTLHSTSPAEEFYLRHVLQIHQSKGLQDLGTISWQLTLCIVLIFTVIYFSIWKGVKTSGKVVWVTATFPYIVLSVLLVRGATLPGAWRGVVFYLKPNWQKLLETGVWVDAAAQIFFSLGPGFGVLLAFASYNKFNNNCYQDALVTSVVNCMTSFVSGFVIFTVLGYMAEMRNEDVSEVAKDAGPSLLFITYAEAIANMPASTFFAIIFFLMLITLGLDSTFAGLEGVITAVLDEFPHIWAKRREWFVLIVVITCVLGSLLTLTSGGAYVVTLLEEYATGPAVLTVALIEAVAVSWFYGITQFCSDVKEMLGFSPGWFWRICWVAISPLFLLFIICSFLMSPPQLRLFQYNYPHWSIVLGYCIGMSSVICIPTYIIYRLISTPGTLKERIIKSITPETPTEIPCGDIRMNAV

`CC(C)N1CCN(C(=O)c2ccc(C(CCN(C)C)Oc3ccc(C(F)(F)F)cc3)cc2)CC1` (stereo unspecified): the affinity corresponds to a Ki of 44 nM.

(Values after ChEMBL document CHEMBL1139920, “Synthesis and biological evaluation of diamine-based histamine H3 antagonists with serotonin reuptake inhibitor activity” (Bioorg Med Chem Lett, 2007).)
